# Laboratory results: article PMC8941131
# B1: Flag-PDK1 (3-phosphoinositide-dependent protein kinase 1, wild type) [not stated] / HA-AKT1 [not stated] (parent)
# chain 1: MARTTSQLYDAVPIQSSVVLCSCPSPSMVRTQTESSTPPGIPGGSRQGPAMDGTAAEPRPGAGSLQHAQPPPQPRKKRPEDFKFGKILGEGSFSTVVLARELATSREYAIKILEKRHIIKENKVPYVTRERDVMSRLDHPFFVKLYFTFQDDEKLYFGLSYAKNGELLKYIRKIGSFDETCTRFYTAEIVSALEYLHGKGIIHRDLKPENILLNEDMHIQITDFGTAKVLSPESKQARANSFVGTAQYVSPELLTEKSACKSSDLWALGCIIYQLVAGLPPFRAGNEYLIFQKIIKLEYDFPEKFFPKARDLVEKLLVLDATKRLGCEEMEGYGPLKAHPFFESVTWENLHQQTPPKLTAYLPAMSEDDEDCYGNYDNLLSQFGCMQVSSSSSSHSLSASDTGLPQRSGSNIEQYIHDLDSNSFELDLQFSEDEKRLLLEKQAGGNPWHQFVENNLILKMGPVDKRKGLFARRRQLLLTEGPHLYYVDPVNKVLKGEIPWSQELRPEAKNFKTFFVHTPNRTYYLMDPSGNAHKWCRKIQEVWRQRYQSHPDAAVQ
# chain 2: MSDVAIVKEGWLHKRGEYIKTWRPRYFLLKNDGTFIGYKERPQDVDQREAPLNNFSVAQCQLMKTERPRPNTFIIRCLQWTTVIERTFHVETPEEREEWTTAIQTVADGLKKQEEEEMDFRSGSPSDNSGAEEMEVSLAKPKHRVTMNEFEYLKLLGKGTFGKVILVKEKATGRYYAMKILKKEVIVAKDEVAHTLTENRVLQNSRHPFLTALKYSFQTHDRLCFVMEYANGGELFFHLSRERVFSEDRARFYGAEIVSALDYLHSEKNVVYRDLKLENLMLDKDGHIKITDFGLCKEGIKDGATMKTFCGTPEYLAPEVLEDNDYGRAVDWWGLGVVMYEMMCGRLPFYNQDHEKLFELILMEEIRFPRTLGPEAKSLLSGLLKKDPKQRLGGGSEDAKEIMQHRFFAGIVWQHVYEKKLSPPFKPQVTSETDTRYFDEEFTAQMITITPPDQDDSMECVDSERRPHFPQFSYSASGTA
# Variants of: B1
# Test: co-immunoprecipitation (IP: Flag), immunoblot band quantification
# Details: with HA-AKT1; 293T cells transfected with HA-AKT1 and Flag-PDK1; n = 3; parent: 1; read off a plot
row,response,Variant
1,1.8,chain 1 R544K
2,3.3,chain 1 S549N
3,3.2,chain 1 P551L
4,1.6,chain 1 P551A
5,2.2,chain 1 R546P
